The other results are listed elsewhere or left out.
What follows are substances tested against Nectin-3 (UniProt Q9NQS3) (assay: co-fractionation; co-fractionation).

Listed as a hit, yes:
Low-density lipoprotein receptor, P01130
Sulfate transporter, P50443
VWFA and cache domain-containing protein 1, Q5VU97
